Reference: ChEMBL document CHEMBL4842371 (J Med Chem, 2021)
Calls of active or inactive are those of the source. No cut-off for these calls is given here.

Tests used:
Format in all cases: functional, organism-based
Rattus norvegicus [1] = assay: Antipsychotic activity in Sprague-Dawley rat assessed as inhibition of PCP-induced hyperactivity at 0.5 mg/kg, po in presence of ondansetron measured after 2 hrs
Rattus norvegicus [2] = assay: Antipsychotic activity in Sprague-Dawley rat assessed as inhibition of PCP-induced hyperactivity at 0.3 to 3 mg/kg, po measured after 2 hrs; details: dose 0.3-3 mg/kg
Rattus norvegicus [3] = assay: Antipsychotic activity in Sprague-Dawley rat assessed as inhibition of PCP-induced hyperactivity at 1 mg/kg, po in presence of ondansetron
Rattus norvegicus [4] = assay: Antipsychotic activity in Sprague-Dawley rat assessed as inhibition of PCP-induced hyperactivity at 1 to 9 mg/kg, po measured after 1 to 2 hrs; details: dose 1-9 mg/kg, time 1-2 hrs
Rattus norvegicus [5] = assay: Antipsychotic activity in Sprague-Dawley rat assessed as inhibition of PCP-induced hyperactivity at 0.5 mg/kg, po measured after 2 hrs

O=S(=O)(c1cccc(Cl)c1)n1ccc2c(N[C@H]3CCNC3)nc3ccccc3c21
Activity (Rattus norvegicus [1]): Active | Activity (Rattus norvegicus [2]): inactive

COc1ccc(S(=O)(=O)Nc2cc(Cl)cc(Cl)c2OC)cc1N1CCNCC1
Activity (Rattus norvegicus [3]): Active | Activity (Rattus norvegicus [4]): inactive

Cc1nccn1CC1CCc2c(c3ccccc3n2C)C1=O (stereo not given)
Activity (Rattus norvegicus [5]): inactive
